The values below come from patent US5302602A, “Tricyclic thromboxane A2 antagonists” (Kyowa Hakko Kogyo Co., Ltd., priority 1987, dated 1994).

Protein sequences, listed by entry. Tags and fused reporters are not part of them.
UniProt P31389, whole entry: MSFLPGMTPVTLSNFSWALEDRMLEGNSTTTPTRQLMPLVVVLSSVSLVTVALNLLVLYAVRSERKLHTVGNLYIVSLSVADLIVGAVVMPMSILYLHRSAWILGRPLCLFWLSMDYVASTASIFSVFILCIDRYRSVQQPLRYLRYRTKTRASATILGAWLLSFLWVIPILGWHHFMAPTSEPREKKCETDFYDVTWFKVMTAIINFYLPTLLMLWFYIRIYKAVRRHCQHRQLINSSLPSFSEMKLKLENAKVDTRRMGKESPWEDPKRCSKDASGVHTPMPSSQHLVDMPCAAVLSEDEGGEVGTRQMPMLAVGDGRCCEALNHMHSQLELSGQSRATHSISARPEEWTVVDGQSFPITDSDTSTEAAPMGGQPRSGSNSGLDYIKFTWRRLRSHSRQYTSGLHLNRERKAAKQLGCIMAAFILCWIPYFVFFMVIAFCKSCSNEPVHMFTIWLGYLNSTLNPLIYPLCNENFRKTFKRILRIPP

The assay concerns the target T1, histamine H1 receptor (Cavia porcellus, UniProt P31389).
T1 construct: from tissue; host or cells: guinea pig cerebellum membranes
Nature of the assay: Binding study using 3H-pyrilamine (histamine H1 receptor binding). Also noted: species or system guinea pig. The conditions noted are these: read-out: (%) Inhibition (3H-pyrilamine binding). As for the experimental part: Receptor binding was determined by the method of chang et al. [J. Neurochem., 32, 1953 (1979)].
The cerebellum of guinea pig was suspended in a 40-fold amount (V/W) of chilled 50 mM phosphate buffer (pH 7.5) with Polytron Homogenizer (Kinematica Co., Ltd.). The suspension was centrifuged (35,500×g, 10 minutes). The resulting precipitates were resuspended in an equal amount of fresh buffer followed by centrifugation. A 100-fold amount (V/W) of chilled buffer was added to the final precipitates.
To 1 ml of the membrane suspension adjusted as described above were added 50 μl of tritium-labeled pyrilamine (^3 H-pyrilamine; NEN Co., Ltd.) and 50 μl of a test compound. […] Hereafter procedures were performed in a manner similar to the TXA2 receptor binding test to determine radioactivity.
An inhibitory activity of the test compound against H1 receptor was calculated by the following equation. […]
Amount of the total binding is an amount of ^3 H-pyrilamine-bound radioactivity in the absence of a test compound.
The amount of non-specific binding is an amount of ^3 H-pyrilamine-bound radioactivity in the presence of 3 μM Astemizole (manufactured by Janesen Pharmaceutics).
The amount bound in the presence of a test compound is an amount of ^3 H-pyrilamine-bound radioactivity in the presence of a test compound in various concentrations.

On to `CN1CCC(=C2c3ccccc3CC(=O)c3sccc32)CC1` [Ketotifen, reference compound], for which the inhibition (usually the share of the control response that was lost under treatment) at 1 µM was found to be 100%.
